## Ab-14 heavy chain CDR variants: yeast mating affinities

The measurements come from Li et al. 2023 (doi:10.1038/s41467-023-39022-2) through the FLAb antibody collection.

All variants were tested on one target, the spike HR2 peptide PDVDLGDISGINAS (SARS-CoV-2).

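The starting antibody came from a phage panning campaign against this peptide. The variants were designed computationally from a first round of random CDR variants and then made and measured. Their group label is 14H_GP_Gen (GP: Gaussian process model; Gen: genetic algorithm; a sequence that several methods proposed may carry one label only). Affinity was read by AlphaSeq, a pooled yeast mating assay with surface-displayed partners. Pairs that bind mate more often; barcode pairs of the diploids are counted by sequencing. The ratio of observed to expected reads was calibrated, replicate by replicate, on BCL2-family standards whose Kd was known from biolayer interferometry. The assay was run in six technical replicates.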

Parent: Ab-14, a human scFv built as VH, the linker GGGGSGGGGSGGGGS, VL. Only the CDRs of the heavy chain vary.
VH: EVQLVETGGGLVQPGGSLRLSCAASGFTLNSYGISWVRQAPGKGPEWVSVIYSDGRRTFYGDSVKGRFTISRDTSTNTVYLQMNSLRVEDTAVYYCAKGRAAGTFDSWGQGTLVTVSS
VL: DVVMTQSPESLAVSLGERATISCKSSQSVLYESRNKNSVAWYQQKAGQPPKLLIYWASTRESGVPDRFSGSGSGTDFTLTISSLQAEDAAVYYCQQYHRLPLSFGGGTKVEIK

Substitutions are numbered in sequence along the VH above, starting at 1 (not Kabat). Affinities are written as log10 Kd with Kd in nM; a lower number is a better binder. Replicates are averaged; those with no signal do not enter the mean. A pair that was not seen in that replicate is written "n.d."; this usually means weak binding, but a binder can also be missed. Empty control strains, which show no peptide, gave a signal in 1% of pairings with all heavy chain designs; the median was 2.08 and 95% of these signals were weaker than 0.84. No background was subtracted. The control count says in how many pairings with the empty strains this scFv gave a signal, with their mean in brackets. Values of this round are not directly comparable with the first-round values of the same sequences. The authors' rule: three or more of the six replicates give a measured affinity, fewer mean a poor binder.

changes | replicates, log10 nM | mean, log10 nM | empty controls
T28S/S63N/R100E/S107T | 0.42 / 0.17 / 0.32 / 0.04 / 0.06 / 0.30 | 0.22 | 1/18 (2.46)
T28D/S63D/R100Q/S107D | 0.94 / 1.16 / 0.80 / 0.82 / 1.91 / 1.17 | 1.13 | 0/18
T28D/R56C/A101T | 0.90 / 0.90 / 0.55 / 0.21 / 0.82 / 0.72 | 0.68 | 0/18
T28D/R56K | 0.25 / 0.31 / 0.04 / -0.11 / -0.18 / -0.01 | 0.05 | 0/18
T28S/R56M/G61K/A101T | n.d. / n.d. / n.d. / n.d. / n.d. / n.d. | n.d. | 0/18
T28S/R56K/S63N/A101T | 0.14 / 0.43 / 0.37 / -0.02 / 0.18 / 0.34 | 0.24 | 0/18
T28Q/F59A/A101T | 0.25 / 0.23 / 0.00 / 0.12 / 0.29 / 0.64 | 0.26 | 0/18
T28D/S63N/R100K/A101N | 0.31 / 0.37 / 0.25 / -0.22 / -0.06 / -0.03 | 0.10 | 0/18
T28D/G61A/S63D/A101T | -0.41 / 0.12 / 0.02 / -0.53 / -0.28 / 0.40 | -0.11 | 0/18
T28N/F59M/A101N | 1.50 / 1.80 / 0.74 / 1.57 / 1.22 / 1.05 | 1.31 | 0/18
T28D/G61Q/A101M | 1.56 / 1.17 / 1.15 / 1.27 / 1.53 / 1.81 | 1.41 | 1/18 (2.84)
T28Q/S31E/A101T/D106C | n.d. / 1.58 / n.d. / n.d. / n.d. / n.d. | 1.58 | 0/18
T28N/S31T/A101E | -0.48 / -0.28 / -0.01 / 0.16 / -0.66 / 0.53 | -0.12 | 0/18
T28D/G61H/A101Q | 0.49 / 0.62 / 0.57 / 0.85 / 0.77 / 0.60 | 0.65 | 2/18 (2.46)
T28D/A101T/S107L | n.d. / 0.23 / 0.65 / -0.36 / -0.29 / -0.16 | 0.01 | 1/18 (0.99)
G26M/T28E/S53A/R100K | n.d. / 1.41 / n.d. / n.d. / 1.89 / 0.87 | 1.39 | 0/18
T28D/G61S/R100K/A101V | 0.14 / -0.81 / n.d. / 0.29 / 0.19 / -1.11 | -0.26 | 0/18
T28E/G61K/A101T/S107A | 0.25 / 0.04 / 0.35 / 0.11 / -0.12 / 0.20 | 0.14 | 0/18
T28E/S53A/R100V | 0.52 / 0.33 / 0.31 / 0.24 / 0.07 / 0.07 | 0.26 | 0/18
T28G/R100K/A101I | 0.65 / 0.58 / n.d. / 1.48 / 0.27 / n.d. | 0.75 | 0/18
T28N/G61I/S63D/R100Q | 1.49 / 1.49 / 0.51 / 0.94 / 1.36 / 1.99 | 1.30 | 0/18
G26H/T28D/G61A/R100K | 0.66 / 0.35 / 0.57 / 0.33 / 0.54 / 0.91 | 0.56 | 1/18 (2.88)
T28E/S53A/R100Q/S107L | -0.10 / -0.10 / -0.32 / -0.17 / -0.17 / -0.30 | -0.19 | 0/18
T28E/S53A/R100Q/S107F | n.d. / n.d. / n.d. / n.d. / n.d. / n.d. | n.d. | 0/18
T28S/S53A/R100E/S107T | -0.13 / -0.27 / -0.48 / -0.69 / -0.51 / -0.09 | -0.36 | 0/18
T28E/S31E/R56I/A101T | -0.65 / 0.16 / -0.52 / -0.31 / -0.19 / 0.19 | -0.22 | 0/18
T28S/S31E/G61K/R100T | 0.45 / 1.29 / 0.52 / 0.60 / 0.38 / 0.77 | 0.67 | 0/18
R56K/S63H/A101T | n.d. / n.d. / n.d. / n.d. / n.d. / n.d. | n.d. | 0/18
T28E/S31M/R100E/S107K | 0.92 / 1.50 / 0.84 / 1.45 / 1.68 / 2.19 | 1.43 | 0/18
T28D/R56M/A101N | -0.90 / -0.18 / n.d. / -0.17 / 1.19 / -0.12 | -0.04 | 0/18
R56K/R100Q/A101E/S107T | 0.37 / 0.42 / 0.07 / -0.25 / 0.36 / 0.21 | 0.20 | 0/18
N30E/G61A/S63D/R100N | 0.70 / 0.90 / 0.19 / 0.82 / 0.88 / 1.85 | 0.89 | 0/18
N30E/A101T/S107K | 2.18 / 1.78 / 1.07 / 1.48 / 0.71 / n.d. | 1.44 | 0/18
G26K/T28S/G61Q/R100E | 1.06 / n.d. / n.d. / n.d. / n.d. / n.d. | 1.06 | 0/18
G61S/R100N/A101E/S107T | 0.17 / 0.33 / 0.09 / -0.35 / 0.36 / 0.05 | 0.11 | 0/18
T28D/A101Q/S107K | 0.66 / 0.62 / 0.59 / 0.61 / 1.27 / 1.45 | 0.87 | 0/18
G26K/T28N/G61I/A101T | n.d. / n.d. / n.d. / n.d. / n.d. / n.d. | n.d. | 0/18
T28N/G61A/S63N/R100N | 0.50 / 0.19 / 0.68 / 0.66 / -0.05 / 0.52 | 0.41 | 2/18 (2.13)
T28E/R56K/S63K/A101T | 0.18 / -0.06 / 0.37 / 0.31 / 0.08 / 0.61 | 0.25 | 0/18
T28D/G61K/R100S | 0.43 / 0.08 / -0.66 / -0.41 / -0.93 / 0.34 | -0.19 | 0/18
T28E/R100M/A101Q | 0.45 / 0.66 / 0.61 / 0.36 / 0.52 / 0.26 | 0.48 | 1/18 (1.32)
N30E/R56K/G61S/R100K | 1.42 / 1.67 / 0.96 / 1.15 / 1.10 / 1.30 | 1.27 | 2/18 (1.63)
T28D/G61K/S63K/A101T | -0.30 / -0.60 / 0.12 / 0.42 / -0.18 / 0.15 | -0.06 | 0/18
T28D/G61Q/R100K/S107V | 2.31 / 1.81 / 1.42 / 1.34 / 1.12 / 1.86 | 1.65 | 0/18
N30E/R100W/A101T | n.d. / n.d. / n.d. / n.d. / 1.91 / n.d. | 1.91 | 0/18
T28N/S63A/A101T | n.d. / n.d. / n.d. / n.d. / n.d. / n.d. | n.d. | 0/18
G26M/T28D/G61A/R100Q/A101T | 0.13 / 0.20 / -0.23 / 0.00 / 0.09 / 0.23 | 0.07 | 0/18
G26K/T28D/G61A/A101T | 0.23 / 0.16 / 0.27 / -0.01 / -0.04 / -0.06 | 0.09 | 0/18
T28D/R100N/S107Q | 0.94 / 0.41 / 0.65 / 0.33 / 0.68 / 0.82 | 0.64 | 0/18
T28Q/G61I/R100E | 1.62 / 1.29 / 1.77 / 1.16 / 1.76 / n.d. | 1.52 | 0/18
T28E/R56K/G61A/A101N | 0.58 / 0.54 / 0.33 / 0.28 / 0.59 / 0.30 | 0.44 | 0/18
S53A/R100H/S107K | 0.19 / -0.09 / 0.24 / -0.04 / 0.37 / 0.83 | 0.25 | 0/18

For reference, 5 entries of the list once more:

changes | replicates, log10 nM | mean, log10 nM | empty controls
T28E/S53A/R100Q/S107L | -0.10 / -0.10 / -0.32 / -0.17 / -0.17 / -0.30 | -0.19 | 0/18
T28E/S53A/R100Q/S107F | n.d. / n.d. / n.d. / n.d. / n.d. / n.d. | n.d. | 0/18
T28N/S63A/A101T | n.d. / n.d. / n.d. / n.d. / n.d. / n.d. | n.d. | 0/18
S53A/R100H/S107K | 0.19 / -0.09 / 0.24 / -0.04 / 0.37 / 0.83 | 0.25 | 0/18
T28E/S53A/R100V | 0.52 / 0.33 / 0.31 / 0.24 / 0.07 / 0.07 | 0.26 | 0/18